Measured affinities in a library of Ab-95 light chain variants

From the AlphaSeq antibody data of Engelhart et al. 2022 (doi:10.1038/s41597-022-01779-4), copy in the FLAb collection.

Binding partner: SARS-CoV-2 spike HR2 peptide, sequence PDVDLGDISGINAS.

Ab-95 is the parent antibody, in scFv form: VH, then three GGGGS repeats, then VL. The heavy chain is unchanged in all variants.
VH: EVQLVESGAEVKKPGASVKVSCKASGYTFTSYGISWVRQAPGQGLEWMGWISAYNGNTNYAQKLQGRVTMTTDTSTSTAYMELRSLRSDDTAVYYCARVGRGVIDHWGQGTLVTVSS
VL: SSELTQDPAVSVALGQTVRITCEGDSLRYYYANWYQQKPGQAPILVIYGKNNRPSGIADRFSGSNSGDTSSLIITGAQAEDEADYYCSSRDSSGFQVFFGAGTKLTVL

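Phage display of a naive human antibody library on the peptide gave the parent. Variants in AAYL52 differ from the parent at up to three CDR positions; double and triple changes were sampled at random. AlphaSeq pools MATa yeast showing the antibodies with MATalpha yeast showing the peptide. Binding brings cells together so that they mate, and sequencing counts the barcode pairs among the diploids. Read counts were normalised to the haploid input and turned into Kd by a linear fit to BCL2-family pairs of known affinity, for each replicate. The assay was run in three technical replicates.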

Positions count from residue 1 of the parent VL; N51R puts R in place of N.
Affinities are written as log10 Kd with Kd in nM; a lower number is a better binder.
A mean of the replicates is given; it leaves out those without a signal.
Where no diploid with the target was found in that replicate, the entry reads "nd": below detection, most likely a poor binder, though not proof of it.
Empty control strains, which show no peptide, gave a signal in 28% of pairings with library AAYL52; the median was 3.91 and 95% of these signals were weaker than 2.90. No background was subtracted. The control count says in how many pairings with the empty strains this scFv gave a signal.
Parent in this assay: reference entry 2.31, copy in this library 2.25.

The variant N51R/R53P/P54L gave 3.81, nd, nd (controls 2 of 9).
The variant Y31F/A32L/N51S gave nd, 4.52, 4.67 (mean 4.60; controls 3 of 9).
The variant R28Q/Y31H/R90I gave nd, nd, nd (controls 0 of 9).
The variant K50M/N52C/S88I gave 3.37, nd, nd (controls 3 of 9).
The variant Y30Q/Y31T/S93C gave 3.04, 3.13, 3.40 (mean 3.19; controls 1 of 9).
The variant Y31S/R53T/S55K gave 2.20, 2.35, 1.91 (mean 2.16; controls 2 of 9).
The variant Y30S/F95L/Q96F gave 2.46, 2.83, 3.27 (mean 2.86; controls 3 of 9).
The variant G24P/N51M/R90G gave nd, nd, 4.48 (controls 3 of 9).
The variant Y29N/D91P/S92L gave 2.09, 2.12, 2.05 (mean 2.09; controls 1 of 9).
The variant N52L/S92W gave 2.10, 1.90, 1.50 (mean 1.84; controls 3 of 9).
The variant N51L/V97I/F98L gave nd, nd, nd (controls 2 of 9).
The variant K50H/S88D/F98K gave nd, nd, nd (controls 0 of 9).
The variant E23M/P54C/S93E gave 2.96, 5.06, 4.30 (mean 4.11; controls 1 of 9).
The variant E23N/N51F/S55F gave 3.50, 3.14, nd (mean 3.32; controls 0 of 9).
The variant E23W/N33V/G49L gave nd, nd, nd (controls 2 of 9).
The variant Y30W/Y31E/Q96N gave 1.42, 1.31, 1.12 (mean 1.28; controls 4 of 9).
The variant R53Q/P54F/S88A gave 4.12, 4.05, 4.30 (mean 4.16; controls 4 of 9).
The variant K50R/N51W/F95T gave nd, 2.72, 4.25 (mean 3.48; controls 0 of 9).
The variant N33W/S93C gave 2.69, 2.39, 2.56 (mean 2.54; controls 0 of 9).
The variant G24L/R28E/A32Q gave 2.31, 2.49, 2.85 (mean 2.55; controls 4 of 9).
The variant R28E/N52G/S89Q gave 2.97, 3.42, 2.49 (mean 2.96; controls 1 of 9).
The variant D25P/S26G gave 2.17, 2.12, 1.94 (mean 2.08; controls 5 of 9).
The variant A32M/N52R/F98I gave nd, nd, nd (controls 5 of 9).
The variant E23N/Y30K/D91A gave 1.55, 1.94, 1.15 (mean 1.55; controls 3 of 9).
The variant Y29E/S89M/F95C gave 3.44, 2.83, 3.74 (mean 3.34; controls 3 of 9).
The variant R28G/N33V/F95A gave 2.66, 2.91, 2.21 (mean 2.59; controls 2 of 9).
The variant S89T gave 2.80, 2.73, 2.44 (mean 2.66; controls 2 of 9).
The variant L27E/R90K gave 4.21, 4.34, 2.75 (mean 3.77; controls 4 of 9).
The variant K50S/S92R/F95N gave 2.39, 2.57, 1.91 (mean 2.29; controls 3 of 9).
The variant G24C/G49I/N52W gave nd, 4.09, nd (controls 2 of 9).
The variant R53G/S55N/F95I gave nd, nd, nd (controls 1 of 9).
The variant S26Q/Y29W/S93R gave nd, 4.00, nd (controls 5 of 9).
The variant E23F/Y30E/A32T gave 2.21, 1.89, 2.17 (mean 2.09; controls 0 of 9).
The variant G49Q/S88T/S89E gave 3.68, nd, nd (controls 0 of 9).
The variant K50I/R53V/S88Y gave 4.40, 4.85, nd (mean 4.63; controls 5 of 9).
The variant Y29I/G49L/F98Q gave 4.29, 3.33, nd (mean 3.81; controls 3 of 9).
The variant L27V/R28C gave 5.18, 3.84, nd (mean 4.51; controls 3 of 9).
The variant L27P/N33W/S92V gave 3.89, 5.81, nd (mean 4.85; controls 1 of 9).
The variant S26C/S55P/S93F gave 3.66, nd, nd (controls 3 of 9).
The variant Y29G/Y31F/N52Y gave 1.87, 1.78, 0.93 (mean 1.52; controls 3 of 9).

The closing 3 entries, repeated:

changes	log10 Kd (nM) by replicate	mean log10 Kd (nM)	control signals
L27P/N33W/S92V	3.89, 5.81, nd	4.85	1 of 9
S26C/S55P/S93F	3.66, nd, nd	3.66	3 of 9
Y29G/Y31F/N52Y	1.87, 1.78, 0.93	1.52	3 of 9